Consider 1 compound from PubChem BioAssay AID1553 (Sanford-Burnham Center for Chemical Genomics, 2009).

The subject of this experiment is HeLa cells, 3H-mannose incorporation into glycoproteins. As to the kind of experiment: increase in 3H-mannose incorporation into HeLa proteins, late-stage follow-up, orthogonal assay for PMI inhibitor project, HeLa cells (AID 1553).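 Further: 1 fold = DMSO treated HeLa control cells; higher fold signals phosphomannose isomerase inhibition routing mannose into glycosylation.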

Active and inactive are the calls of the source.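 How the source made its calls: active means compounds graded as giving a low, moderate or strong rise in tritium labelling of cell protein versus solvent control; inactive means the rest.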

For `CN(C)C(=O)c1cccc(-n2sc3ccccc3c2=O)c1`, the fold increase 3H incorporation reads like this: (at 100 µM) inactive: 0.8; (fold increase, at 25 µM, stronger effect = higher value) 1.
